Article PMC5620609 (Pharmaceuticals, 2017)
Like-named read-outs stand apart in the source and are kept apart here.

Assays:
[1] = test system: NCI 60 cell line panel; assay: NCI 60 cell line panel, allocation of cell lines by growth inhibition at 10 µM; format: cell-based, human; conditions: estimate
Source text: Details of the NCI 60 One Dose Screen are well known and available online.

[2] = mice; IV; 3 consecutive days per week for 3 weeks
[3] = test system: LoVo colon cancer (TP53 WT) xenograft; format: in vivo; conditions: LoVo first study; NUC013 5.8 mg/kg IV
Method: (§1) Drugs were administered IV for 3 consecutive days a week for 3 weeks. HL-60 is a human leukemia cell line (TP53 null) that is part of the NCI 60 cell line panel and can be grown in nude mice.
(§2) First, 10^7 tumor cells from culture in Matrigel™ of HL-60 human leukemia or LoVo colon cancer were implanted subcutaneously in the flank of 1.75-fold the number of NCr-nu/nu mice required for the study. Study initiation began when the required number of mice had tumors of approximately: • 100 to 250 mm^3 (target group mean tumor volume of approximately 175 mm^3) for the first set of studies. • 14 to 63 mm^3 (target group mean tumor weight of approximately 30 mm^3) for the second set of studies.
(§3) Mice with tumors in the proper volume range were arbitrarily assigned to groups. Mice received test article on 3 consecutive days per week for 3 weeks. Mice were observed daily for mortality and moribundity with weights and the tumor measurements taken twice weekly. Tumor volume was determined using the formula for an ellipsoid sphere: Length × Width^2/2 = Volume (mm^3). The experiments were scheduled to last for 60 days from the day of tumor implant. Any animal whose weight decreased more than 30% from the weight on the first day of treatment or whose tumor reached 4000 mm^3 in volume, ulcerated or sloughed off, or was moribund was euthanized prior to study termination.

[4] = test system: HL-60 human leukemia (TP53 null) xenograft; format: in vivo
Method: as §1, §2, §3

Q: With `Nc1ncn([C@@H]2O[C@H](CO)[C@@H](O)C2(F)F)c(=O)n1` [NUC013, 5-aza-2′,2′-difluroro deoxycytidine] as the compound, how does the “mean GI50 relative to decitabine (fold lower)” value [1] read?
A: ≤ 10 fold

Q: What about the “tolerability at repeat doses of up to 120 mg/kg” value [2] of the same compound?
A: without evidence of weight loss or death

Q: And the “hazard ratio (HR) vs saline” value [3]?
A: 1.64

Q: And the “hazard ratio (HR) vs saline” value ([4]; HL-60 first study, NUC013 5.8 mg/kg IV)?
A: 0.59

Q: What about the “hazard ratio (HR) vs saline” value ([4]; HL-60 second study, NUC013 20 mg/kg IV) of the same compound?
A: 0.26
